Laboratory results published in PubChem BioAssay (EPA / NIEHS).
Only a part is listed here, and it is no random draw. Records with an inconclusive call do not appear. Active and inactive are the calls of the source. The calls were made as follows, unless noted: active = hit-call score of the fitted dose curve at least 0.9, where 1 is the maximum; inactive = score below 0.9.

Sequences of proteins named here, by UniProt entry; tags and fusion partners are left off.
UniProt P16581, whole entry: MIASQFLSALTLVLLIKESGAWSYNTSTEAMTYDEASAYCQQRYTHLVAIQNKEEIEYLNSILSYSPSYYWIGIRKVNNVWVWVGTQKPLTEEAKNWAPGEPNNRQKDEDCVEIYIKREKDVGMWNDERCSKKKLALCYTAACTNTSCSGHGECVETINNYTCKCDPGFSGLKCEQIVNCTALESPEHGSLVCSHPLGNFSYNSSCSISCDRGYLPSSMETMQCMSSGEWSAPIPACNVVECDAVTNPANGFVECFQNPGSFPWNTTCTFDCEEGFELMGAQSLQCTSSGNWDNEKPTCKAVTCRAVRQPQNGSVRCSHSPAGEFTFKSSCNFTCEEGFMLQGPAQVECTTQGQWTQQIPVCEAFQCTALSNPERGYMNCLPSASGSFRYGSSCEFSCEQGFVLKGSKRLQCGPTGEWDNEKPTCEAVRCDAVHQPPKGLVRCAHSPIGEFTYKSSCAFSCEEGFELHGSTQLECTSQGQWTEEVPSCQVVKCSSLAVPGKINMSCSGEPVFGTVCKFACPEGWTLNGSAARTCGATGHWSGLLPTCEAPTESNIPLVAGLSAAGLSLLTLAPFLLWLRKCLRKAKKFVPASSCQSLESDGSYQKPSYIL
UniProt P35372, whole entry: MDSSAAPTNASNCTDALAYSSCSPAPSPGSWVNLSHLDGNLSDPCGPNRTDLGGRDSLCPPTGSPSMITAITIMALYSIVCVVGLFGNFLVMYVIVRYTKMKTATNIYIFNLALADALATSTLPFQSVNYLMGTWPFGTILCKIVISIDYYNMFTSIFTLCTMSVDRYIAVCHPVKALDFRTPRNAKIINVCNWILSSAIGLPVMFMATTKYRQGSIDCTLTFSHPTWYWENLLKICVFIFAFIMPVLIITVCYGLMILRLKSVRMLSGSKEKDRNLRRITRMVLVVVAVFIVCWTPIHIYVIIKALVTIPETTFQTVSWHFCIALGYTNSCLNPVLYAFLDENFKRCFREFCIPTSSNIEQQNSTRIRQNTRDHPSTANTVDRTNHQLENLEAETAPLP
UniProt P10275, whole entry: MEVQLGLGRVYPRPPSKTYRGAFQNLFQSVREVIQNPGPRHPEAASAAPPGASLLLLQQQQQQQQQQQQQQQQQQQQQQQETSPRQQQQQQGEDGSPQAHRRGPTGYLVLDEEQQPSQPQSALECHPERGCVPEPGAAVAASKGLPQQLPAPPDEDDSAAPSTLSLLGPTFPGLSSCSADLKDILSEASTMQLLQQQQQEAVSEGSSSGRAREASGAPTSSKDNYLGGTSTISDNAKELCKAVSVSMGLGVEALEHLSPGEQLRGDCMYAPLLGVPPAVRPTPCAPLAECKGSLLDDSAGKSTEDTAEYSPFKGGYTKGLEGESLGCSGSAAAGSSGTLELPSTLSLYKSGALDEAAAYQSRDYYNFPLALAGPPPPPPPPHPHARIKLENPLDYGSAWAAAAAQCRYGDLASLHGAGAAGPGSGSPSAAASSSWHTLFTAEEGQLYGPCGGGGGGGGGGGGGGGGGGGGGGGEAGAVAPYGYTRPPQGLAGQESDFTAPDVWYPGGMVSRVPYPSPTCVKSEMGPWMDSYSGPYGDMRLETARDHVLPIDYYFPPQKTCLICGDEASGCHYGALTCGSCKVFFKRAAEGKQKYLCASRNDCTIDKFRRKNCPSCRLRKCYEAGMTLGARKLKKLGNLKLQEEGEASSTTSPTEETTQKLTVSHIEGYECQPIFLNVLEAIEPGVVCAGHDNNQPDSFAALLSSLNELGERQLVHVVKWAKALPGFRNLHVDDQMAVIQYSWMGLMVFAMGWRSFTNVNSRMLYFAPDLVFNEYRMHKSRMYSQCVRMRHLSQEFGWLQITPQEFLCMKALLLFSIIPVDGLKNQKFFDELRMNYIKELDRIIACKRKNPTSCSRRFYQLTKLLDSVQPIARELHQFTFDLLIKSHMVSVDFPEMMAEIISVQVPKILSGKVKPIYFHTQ
UniProt P08684, whole entry: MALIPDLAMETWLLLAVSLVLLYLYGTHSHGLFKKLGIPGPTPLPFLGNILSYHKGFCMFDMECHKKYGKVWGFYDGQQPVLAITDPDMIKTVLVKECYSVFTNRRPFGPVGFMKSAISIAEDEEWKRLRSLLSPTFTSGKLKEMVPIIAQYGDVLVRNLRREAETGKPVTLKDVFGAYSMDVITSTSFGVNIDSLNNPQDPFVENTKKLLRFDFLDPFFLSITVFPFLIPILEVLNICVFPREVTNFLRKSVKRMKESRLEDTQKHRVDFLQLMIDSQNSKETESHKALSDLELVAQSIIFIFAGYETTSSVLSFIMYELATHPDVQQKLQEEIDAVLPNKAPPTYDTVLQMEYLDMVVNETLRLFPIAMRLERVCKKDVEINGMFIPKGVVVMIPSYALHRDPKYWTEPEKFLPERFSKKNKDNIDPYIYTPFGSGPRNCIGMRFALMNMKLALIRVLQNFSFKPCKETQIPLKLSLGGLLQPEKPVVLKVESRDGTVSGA

Tests used:
[1] = BSK_LPS_SRB: Viability Assessment in the BioMAP Diversity Plus: LPS Assay (AID 2283079); details: primary human HUVEC with PBMC;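 also: total protein by sulforhodamine B absorbance as a cytotoxicity measure; measured one day after compound addition; fitted in both directions against DMSO so loss or gain of signal counts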
In short: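 Readout is SRB absorbance at 560 nm (0.1% stain, TCA-fixed parallel cultures) as a total-protein cytotoxicity measure. Cells: primary human umbilical vein endothelium plus peripheral blood mononuclear cells, 24 h after chemical exposure; DMSO served as baseline.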

[2] = read-out: Interleukin-1 alpha (IL1a), IL1A (gene 3552); experiment: BSK_LPS_IL1a: BioMAP Diversity Plus: LPS Assay for Interleukin-1 alpha (IL1a) Biomarker Activity (AID 2283080); details: actives raise or lower the signal; primary human HUVEC with PBMC
In short: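 ELISA read-out of IL-1 alpha from a human primary vascular co-culture (endothelium plus PBMC) under LPS, sampled 24 hours post-dosing. Activity was fitted in both directions relative to DMSO controls.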

[3] = BSK_LPS_PGE2: BioMAP Diversity Plus: LPS Assay for Prostaglandin E2 (PGE2) Biomarker Activity (AID 2283082); details: actives raise or lower the signal; primary human HUVEC with PBMC;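 also: secreted prostaglandin E2 measured by ELISA in LPS-stimulated co-culture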
In short: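 HUVEC plus PBMC co-culture stimulated with LPS; secreted PGE2 quantified by ELISA 24 h after chemical dosing. Activity fitted bidirectionally against DMSO as negative control and baseline; parallel SRB total-protein staining served as cytotoxicity check.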

[4] = read-out: Macrophage colony-stimulating factor (MCSF), CSF1 (gene 1435); experiment: BSK_LPS_MCSF: BioMAP Diversity Plus: LPS Assay for Macrophage colony-stimulating factor (MCSF) Biomarker Activity (AID 2283083); details: actives raise or lower the signal; primary human HUVEC with PBMC
In short: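 ELISA readout of M-CSF after 24 h compound exposure in a human endothelial/PBMC co-culture. Activity, in either direction, is fitted relative to DMSO vehicle.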

[5] = read-out: Tissue Factor, F3 (gene 2152); experiment: BSK_LPS_TissueFactor: BioMAP Diversity Plus: LPS Assay for Tissue Factor Biomarker Activity (AID 2283084); details: actives raise or lower the signal; primary human HUVEC with PBMC
In short: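 ELISA signal for cell-surface Tissue Factor (CD142) was read 24 h after compound dosing of an LPS-stimulated human endothelial–PBMC primary co-culture. Gain or loss of signal was scored relative to DMSO.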

[6] = read-out: Vascular cell adhesion molecule 1 (VCAM1), VCAM1 (gene 7412); experiment: BSK_LPS_VCAM1: BioMAP Diversity Plus: LPS Assay for Vascular cell adhesion molecule 1 (VCAM1) Biomarker Activity (AID 2283086); details: actives raise or lower the signal; primary human HUVEC with PBMC
In short: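 Human umbilical vein endothelial cells co-cultured with peripheral blood mononuclear cells under LPS stimulation were exposed to test chemical for 24 h. VCAM-1 levels were then measured by ELISA, with bidirectional curve fitting relative to DMSO as negative control and baseline.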

CD69, CD69 (gene 969) = experiment: BSK_SAg_CD69: BioMAP Diversity Plus: SAg Assay for CD69 Biomarker Activity (AID 2283089); details: actives raise or lower the signal; primary human HUVEC with PBMC;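 also: cell surface CD69 protein quantified by ELISA with fluorescence detection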
In short: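 Endothelial/PBMC co-culture; chemical added; 24 h incubation; CD69 ELISA with fluorescence detection; bidirectional fit vs DMSO.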

[7] = read-out: Monocyte Chemoattractant Protein-1 (MCP1), CCL2 (gene 6347); experiment: BSK_SAg_MCP1: BioMAP Diversity Plus: SAg Assay for Monocyte Chemoattractant Protein-1 (MCP1) Biomarker Activity (AID 2283090); details: actives raise or lower the signal; primary human HUVEC with PBMC
In short: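 MCP-1 levels in the endothelial–PBMC SAg co-culture were quantified by ELISA at 24 h post-dosing; both increases and decreases versus DMSO scored. Cytotoxicity monitored by SRB total protein in parallel cultures.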

[8] = read-out: E-selectin (Homo sapiens) (UniProt P16581); experiment: BSK_SAg_Eselectin: BioMAP Diversity Plus: SAg Assay for Eselectin Biomarker Activity (AID 2283091); details: actives raise or lower the signal; primary human HUVEC with PBMC
In short: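 Co-culture: HUVEC + PBMC. Dose compound; 24 h. ELISA for E-selectin. Bidirectional fit vs DMSO.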

[9] = read-out: Interleukin-8 (IL8), CXCL8 (gene 3576); experiment: BSK_SAg_IL8: BioMAP Diversity Plus: SAg Assay for Interleukin-8 (IL8) Biomarker Activity (AID 2283094); details: actives raise or lower the signal; primary human HUVEC with PBMC
In short: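 Human umbilical vein endothelial cells co-cultured with peripheral blood mononuclear cells; IL-8 measured by ELISA 24 h after chemical dosing. Bidirectional concentration-response fitting used DMSO as negative control and activity baseline.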

[10] = target: human Opioid Receptor Mu (Opiate Mu), OPRM1 (gene 4988) (UniProt P35372); experiment: NVS_GPCR_hOpiate_mu: NovaScreen (NVS) G Protein-Coupled Receptor Assay for human Opioid Receptor Mu (Opiate Mu) (AID 2283290; active = hit-call score of the fitted dose curve at least 0.9, where 1 is the maximum;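 also: hits lower bound tracer signal versus DMSO meaning displacement of the ligand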)
In short: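 CHO-derived receptor protein, cell-free; radioligand displacement, filtration + scintillation counting, read at 2.5 h. DMSO = negative control/baseline. Primary: 25 uM single conc, duplicate; secondary: concentration series.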

[11] = target: Androgen Receptor/SRC-1 Co-activator, AR (gene 367) (UniProt P10275); experiment: OT_AR_ARSRC1_0480: Odyssey Thera (OT) 8-hour HEK293T Protein-Complementation Assay for Androgen Receptor/SRC-1 Co-activator (AID 2283354; active = hit-call score of the fitted dose curve at least 0.9, where 1 is the maximum;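 also: hits raise the complementation signal above DMSO so AC50 marks enhancers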)
In short: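 HEK293T cells stably expressing AR and SRC-1 fused to split Venus YFP fragments via (Gly4Ser)2 linkers were read 8 h after compound dosing. Complementation was imaged at 488 and 635nm, and nuclear/cytoplasmic fluorescence ratio (488nm) was taken over ≥400 cells; gain-of-signal versus DMSO.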

[12] = read-out: Alkaline Phosphatase, Placental (ALPP) gene, ALPP (gene 250); experiment: LTEA_HepaRG_ALPP: Life Technologies and Expression Analysis (LTEA) Assay for Alkaline Phosphatase, Placental (ALPP) gene using HepaRG (AID 2283468); details: actives raise or lower the signal; mRNA level, 48 h
In short: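 HepaRG, 48 h plating then 48 h dosing, serum-free induction medium, 0.5% DMSO. 8 conc, half-log, max 100 uM, duplicates. Endpoint: ALPP transcript by qRT-PCR, housekeeping-normalized; gain or loss fitted vs DMSO.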

CYP2E1 (gene 1571) = experiment: LTEA_HepaRG_CYP2E1: Life Technologies and Expression Analysis (LTEA) Assay for CYP2E1 using HepaRG (AID 2283485); details: actives raise or lower the signal; mRNA level, 48 h
In short: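 HepaRG cells in serum-free induction medium exposed 48 h to test chemicals, 8 half-log concentrations up to 100 uM in 0.5% DMSO, duplicate. CYP2E1 mRNA by qRT-PCR, normalized to ACTB, GAPDH, POLR2A; bidirectional fit versus DMSO.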

[13] = read-out: Cytochrome P450 3A4 (Homo sapiens) (UniProt P08684); experiment: LTEA_HepaRG_CYP3A4: Life Technologies and Expression Analysis (LTEA) Assay for CYP3A4 using HepaRG (AID 2283487); details: actives raise or lower the signal; mRNA level, 48 h
In short: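 HepaRG, 48 h exposure, 8-pt CRC from 100 uM (half-log), 0.5% DMSO, duplicates; serum-free induction medium. Readout: CYP3A4 mRNA, qRT-PCR, ACTB/GAPDH/POLR2A normalization. Bidirectional fit vs DMSO.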

[14] = read-out: Fatty Acid-Binding Protein 1 (FABP1), FABP1 (gene 2168); experiment: LTEA_HepaRG_FABP1: Life Technologies and Expression Analysis (LTEA) Assay for Fatty Acid-Binding Protein 1 (FABP1) using HepaRG (AID 2283494); details: actives raise or lower the signal; mRNA level, 48 h
In short: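 Differentiated human HepaRG cells were exposed in duplicate for 48 h in serum-free induction medium to 8-point half-log concentration series topping at 100 uM in 0.5% DMSO. FABP1 mRNA measured by TaqMan qRT-PCR, normalized to ACTB/GAPDH/POLR2A; bidirectional fit versus DMSO.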

[15] = read-out: Cytochrome P450 7A1 (Homo sapiens) (UniProt P22680); experiment: LTEA_HepaRG_CYP7A1: Life Technologies and Expression Analysis (LTEA) Assay for Cytochrome P450 7A1 (CYP7A1) using HepaRG (AID 2283496); details: actives raise or lower the signal; mRNA level, 48 h
In short: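 Gene expression endpoint in human HepaRG liver cells treated for 48 h with test chemicals (up to 100 uM, 0.5% DMSO). Values come from bidirectional concentration-response fitting versus DMSO.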

[16] = read-out: Keratin 19 (KRT19), KRT19 (gene 3880); experiment: LTEA_HepaRG_KRT19: Life Technologies and Expression Analysis (LTEA) Assay for Keratin 19 (KRT19) using HepaRG (AID 2283512); details: actives raise or lower the signal; mRNA level, 48 h
In short: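 KRT19 transcript levels, measured by Fluidigm qRT-PCR against three housekeeping genes, are fitted for gain or loss of signal relative to DMSO. Human HepaRG cells receive test chemicals (top 100 uM, half-log steps, 0.5% DMSO) for 48 hours.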

[17] = ACEA_AR_antagonist_AUC_viability: ACEA Biosciences xCELLigence Real-Time Cell Analysis on Androgen Receptor Antagonism for Viability (AID 2283776; active = hit-call score of the fitted dose curve at least 0.9, where 1 is the maximum;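 also: 22Rv1 human prostate cancer cells growing on impedance electrode plates; area under impedance growth curve at 80 h after dosing as viability; hits lower the growth signal relative to DMSO meaning cytotoxicity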)
In short: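 22Rv1 prostate cells, continuous dosing up to 100 uM final (0.5% DMSO max), duplicate plates. Growth measured by impedance; AUC at 80 h, loss of signal vs DMSO.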

[18] = CPHEA_Stoker_NIS_Cytotoxicity: Cytotoxicity Assessment for CPHEA's Radioactive Iodide Uptake (RAIU) Assay for Sodium/Iodide Symporter (NIS) Inhibition, Stoker and Laws Labs (AID 2283897; active = hit-call score of the fitted dose curve at least 0.9, where 1 is the maximum;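 also: active means loss of ATP signal versus DMSO meaning cytotoxicity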)
In short: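 ATP luminescence (Cell Titer Glo) measured viability, with loss of signal normalized to DMSO controls. Cells: hNIS-HEK293T-EPA, seeded 40 hours prior. Dosing: 0.001–100uM, 2 hours, room temperature, uptake buffer pH 7.4.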

DIO1 (gene 1733) = experiment: CCTE_GLTED_hDIO1: CCTE's human Deiodinase 1 (DIO1) Inhibition Assay, Great Lakes Toxicology and Ecology Division (GLTED) Lab (AID 2283987; active = hit-call score of the fitted dose curve at least 0.9, where 1 is the maximum;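 also: isolated human DIO1 enzyme in a cell-free setup rather than cells; enzyme activity read as free iodide liberated from substrate via Sandell-Kolthoff colorimetry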)
In short: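 Inhibition of human deiodinase 1 is scored as reduced iodide liberation after a 3 h enzyme–chemical incubation, detected colorimetrically by the Sandell-Kolthoff reaction against DMSO controls.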

[19] = CCTE_Shafer_MEA_acute_network_burst_percentage: CCTE's Neural Acute Assay for Percentage of Network Bursts, Shafer Lab (AID 2284022);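 also: curves fitted for loss so actives lower network burst percentage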
In short: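 Readout is the fraction of spikes falling in network bursts, expressed as per-well percent change from a 40-min pre-exposure baseline. Primary rat cortical neurons on MEA were exposed to 0.03-40 uM compound on DIV 13 or 15 and recorded for 40 min at 37 C.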

DIO3 (gene 1735) = experiment: CCTE_GLTED_hDIO3: CCTE's human Deiodinase 3 (DIO3) Inhibition Assay, Great Lakes Toxicology and Ecology Division (GLTED) Lab (AID 2284055; active = hit-call score of the fitted dose curve at least 0.9, where 1 is the maximum;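 also: potency is for inhibition seen as loss of released iodide signal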)
In short: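 Cell-free assay with human DIO3 enzyme produced by adenovirus expression; enzyme incubated with test chemical for 3 hours. Liberated iodide then measured by Sandell-Kolthoff absorbance; loss of signal versus DMSO baseline indicates inhibition, run in triplicate.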

Measured: AC50

O=C1C2CC=CCC2C(=O)N1SC(Cl)(Cl)C(Cl)Cl (stereo not drawn)
active: [1] 15.7 µM | [2] 12.4 µM | [3] 2.92 µM | [4] 13.9 µM | [5] 17.3 µM | [6] 12.7 µM | CD69, CD69 (gene 969) 14.6 µM | [7] 12.8 µM | [8] 8.97 µM | [9] 13.4 µM | [10] 1.51 µM | [11] 16.5 µM | [12] 1.99 µM | CYP2E1 (gene 1571) 29.2 µM | [13] 12.8 µM | [14] 16.8 µM | [15] 19.8 µM | [16] 10.6 µM | [17] 3.11 µM | [18] 38.7 µM | DIO1 (gene 1733) 11.5 µM | [19] 36.9 µM | DIO3 (gene 1735) 50.5 µM
